Source: US7452863 (Genentech, dated 2008)

Target: T1, human trkC extracellular domain fused to immunoglobulin constant domains (receptor immunoadhesin) (human, UniProt Q16288 32-429)
T1 construct: extracellular domain
Experiment: competitive displacement binding on human trkC immunoadhesin

B1: NGF126 (SEQ ID NO:10) (ligand)
chain: SSSHPIFHRGEFSVCDSESLWVTDKTTATDIKGKEVMVLGEVNINNSVFKQYFFETKCRDPNPVDSGCRGIDSKHWNSYCKTTQTYVKALTMDGKQAAWRFIRIDTACVCVLSRKAVRRA
fold improvement in binding to trkC compared to NGF12: 4.5 fold
